Biological target: Ryanodine receptor 3 (Mus musculus) (UniProt A2AGL3)
Experiment: Displacement of [3H]ryanodine from ryanodine receptor(ryr) of Mouse brain

Amino acid sequences for entries named in this document (tags omitted).
UniProt A2AGL3, whole entry: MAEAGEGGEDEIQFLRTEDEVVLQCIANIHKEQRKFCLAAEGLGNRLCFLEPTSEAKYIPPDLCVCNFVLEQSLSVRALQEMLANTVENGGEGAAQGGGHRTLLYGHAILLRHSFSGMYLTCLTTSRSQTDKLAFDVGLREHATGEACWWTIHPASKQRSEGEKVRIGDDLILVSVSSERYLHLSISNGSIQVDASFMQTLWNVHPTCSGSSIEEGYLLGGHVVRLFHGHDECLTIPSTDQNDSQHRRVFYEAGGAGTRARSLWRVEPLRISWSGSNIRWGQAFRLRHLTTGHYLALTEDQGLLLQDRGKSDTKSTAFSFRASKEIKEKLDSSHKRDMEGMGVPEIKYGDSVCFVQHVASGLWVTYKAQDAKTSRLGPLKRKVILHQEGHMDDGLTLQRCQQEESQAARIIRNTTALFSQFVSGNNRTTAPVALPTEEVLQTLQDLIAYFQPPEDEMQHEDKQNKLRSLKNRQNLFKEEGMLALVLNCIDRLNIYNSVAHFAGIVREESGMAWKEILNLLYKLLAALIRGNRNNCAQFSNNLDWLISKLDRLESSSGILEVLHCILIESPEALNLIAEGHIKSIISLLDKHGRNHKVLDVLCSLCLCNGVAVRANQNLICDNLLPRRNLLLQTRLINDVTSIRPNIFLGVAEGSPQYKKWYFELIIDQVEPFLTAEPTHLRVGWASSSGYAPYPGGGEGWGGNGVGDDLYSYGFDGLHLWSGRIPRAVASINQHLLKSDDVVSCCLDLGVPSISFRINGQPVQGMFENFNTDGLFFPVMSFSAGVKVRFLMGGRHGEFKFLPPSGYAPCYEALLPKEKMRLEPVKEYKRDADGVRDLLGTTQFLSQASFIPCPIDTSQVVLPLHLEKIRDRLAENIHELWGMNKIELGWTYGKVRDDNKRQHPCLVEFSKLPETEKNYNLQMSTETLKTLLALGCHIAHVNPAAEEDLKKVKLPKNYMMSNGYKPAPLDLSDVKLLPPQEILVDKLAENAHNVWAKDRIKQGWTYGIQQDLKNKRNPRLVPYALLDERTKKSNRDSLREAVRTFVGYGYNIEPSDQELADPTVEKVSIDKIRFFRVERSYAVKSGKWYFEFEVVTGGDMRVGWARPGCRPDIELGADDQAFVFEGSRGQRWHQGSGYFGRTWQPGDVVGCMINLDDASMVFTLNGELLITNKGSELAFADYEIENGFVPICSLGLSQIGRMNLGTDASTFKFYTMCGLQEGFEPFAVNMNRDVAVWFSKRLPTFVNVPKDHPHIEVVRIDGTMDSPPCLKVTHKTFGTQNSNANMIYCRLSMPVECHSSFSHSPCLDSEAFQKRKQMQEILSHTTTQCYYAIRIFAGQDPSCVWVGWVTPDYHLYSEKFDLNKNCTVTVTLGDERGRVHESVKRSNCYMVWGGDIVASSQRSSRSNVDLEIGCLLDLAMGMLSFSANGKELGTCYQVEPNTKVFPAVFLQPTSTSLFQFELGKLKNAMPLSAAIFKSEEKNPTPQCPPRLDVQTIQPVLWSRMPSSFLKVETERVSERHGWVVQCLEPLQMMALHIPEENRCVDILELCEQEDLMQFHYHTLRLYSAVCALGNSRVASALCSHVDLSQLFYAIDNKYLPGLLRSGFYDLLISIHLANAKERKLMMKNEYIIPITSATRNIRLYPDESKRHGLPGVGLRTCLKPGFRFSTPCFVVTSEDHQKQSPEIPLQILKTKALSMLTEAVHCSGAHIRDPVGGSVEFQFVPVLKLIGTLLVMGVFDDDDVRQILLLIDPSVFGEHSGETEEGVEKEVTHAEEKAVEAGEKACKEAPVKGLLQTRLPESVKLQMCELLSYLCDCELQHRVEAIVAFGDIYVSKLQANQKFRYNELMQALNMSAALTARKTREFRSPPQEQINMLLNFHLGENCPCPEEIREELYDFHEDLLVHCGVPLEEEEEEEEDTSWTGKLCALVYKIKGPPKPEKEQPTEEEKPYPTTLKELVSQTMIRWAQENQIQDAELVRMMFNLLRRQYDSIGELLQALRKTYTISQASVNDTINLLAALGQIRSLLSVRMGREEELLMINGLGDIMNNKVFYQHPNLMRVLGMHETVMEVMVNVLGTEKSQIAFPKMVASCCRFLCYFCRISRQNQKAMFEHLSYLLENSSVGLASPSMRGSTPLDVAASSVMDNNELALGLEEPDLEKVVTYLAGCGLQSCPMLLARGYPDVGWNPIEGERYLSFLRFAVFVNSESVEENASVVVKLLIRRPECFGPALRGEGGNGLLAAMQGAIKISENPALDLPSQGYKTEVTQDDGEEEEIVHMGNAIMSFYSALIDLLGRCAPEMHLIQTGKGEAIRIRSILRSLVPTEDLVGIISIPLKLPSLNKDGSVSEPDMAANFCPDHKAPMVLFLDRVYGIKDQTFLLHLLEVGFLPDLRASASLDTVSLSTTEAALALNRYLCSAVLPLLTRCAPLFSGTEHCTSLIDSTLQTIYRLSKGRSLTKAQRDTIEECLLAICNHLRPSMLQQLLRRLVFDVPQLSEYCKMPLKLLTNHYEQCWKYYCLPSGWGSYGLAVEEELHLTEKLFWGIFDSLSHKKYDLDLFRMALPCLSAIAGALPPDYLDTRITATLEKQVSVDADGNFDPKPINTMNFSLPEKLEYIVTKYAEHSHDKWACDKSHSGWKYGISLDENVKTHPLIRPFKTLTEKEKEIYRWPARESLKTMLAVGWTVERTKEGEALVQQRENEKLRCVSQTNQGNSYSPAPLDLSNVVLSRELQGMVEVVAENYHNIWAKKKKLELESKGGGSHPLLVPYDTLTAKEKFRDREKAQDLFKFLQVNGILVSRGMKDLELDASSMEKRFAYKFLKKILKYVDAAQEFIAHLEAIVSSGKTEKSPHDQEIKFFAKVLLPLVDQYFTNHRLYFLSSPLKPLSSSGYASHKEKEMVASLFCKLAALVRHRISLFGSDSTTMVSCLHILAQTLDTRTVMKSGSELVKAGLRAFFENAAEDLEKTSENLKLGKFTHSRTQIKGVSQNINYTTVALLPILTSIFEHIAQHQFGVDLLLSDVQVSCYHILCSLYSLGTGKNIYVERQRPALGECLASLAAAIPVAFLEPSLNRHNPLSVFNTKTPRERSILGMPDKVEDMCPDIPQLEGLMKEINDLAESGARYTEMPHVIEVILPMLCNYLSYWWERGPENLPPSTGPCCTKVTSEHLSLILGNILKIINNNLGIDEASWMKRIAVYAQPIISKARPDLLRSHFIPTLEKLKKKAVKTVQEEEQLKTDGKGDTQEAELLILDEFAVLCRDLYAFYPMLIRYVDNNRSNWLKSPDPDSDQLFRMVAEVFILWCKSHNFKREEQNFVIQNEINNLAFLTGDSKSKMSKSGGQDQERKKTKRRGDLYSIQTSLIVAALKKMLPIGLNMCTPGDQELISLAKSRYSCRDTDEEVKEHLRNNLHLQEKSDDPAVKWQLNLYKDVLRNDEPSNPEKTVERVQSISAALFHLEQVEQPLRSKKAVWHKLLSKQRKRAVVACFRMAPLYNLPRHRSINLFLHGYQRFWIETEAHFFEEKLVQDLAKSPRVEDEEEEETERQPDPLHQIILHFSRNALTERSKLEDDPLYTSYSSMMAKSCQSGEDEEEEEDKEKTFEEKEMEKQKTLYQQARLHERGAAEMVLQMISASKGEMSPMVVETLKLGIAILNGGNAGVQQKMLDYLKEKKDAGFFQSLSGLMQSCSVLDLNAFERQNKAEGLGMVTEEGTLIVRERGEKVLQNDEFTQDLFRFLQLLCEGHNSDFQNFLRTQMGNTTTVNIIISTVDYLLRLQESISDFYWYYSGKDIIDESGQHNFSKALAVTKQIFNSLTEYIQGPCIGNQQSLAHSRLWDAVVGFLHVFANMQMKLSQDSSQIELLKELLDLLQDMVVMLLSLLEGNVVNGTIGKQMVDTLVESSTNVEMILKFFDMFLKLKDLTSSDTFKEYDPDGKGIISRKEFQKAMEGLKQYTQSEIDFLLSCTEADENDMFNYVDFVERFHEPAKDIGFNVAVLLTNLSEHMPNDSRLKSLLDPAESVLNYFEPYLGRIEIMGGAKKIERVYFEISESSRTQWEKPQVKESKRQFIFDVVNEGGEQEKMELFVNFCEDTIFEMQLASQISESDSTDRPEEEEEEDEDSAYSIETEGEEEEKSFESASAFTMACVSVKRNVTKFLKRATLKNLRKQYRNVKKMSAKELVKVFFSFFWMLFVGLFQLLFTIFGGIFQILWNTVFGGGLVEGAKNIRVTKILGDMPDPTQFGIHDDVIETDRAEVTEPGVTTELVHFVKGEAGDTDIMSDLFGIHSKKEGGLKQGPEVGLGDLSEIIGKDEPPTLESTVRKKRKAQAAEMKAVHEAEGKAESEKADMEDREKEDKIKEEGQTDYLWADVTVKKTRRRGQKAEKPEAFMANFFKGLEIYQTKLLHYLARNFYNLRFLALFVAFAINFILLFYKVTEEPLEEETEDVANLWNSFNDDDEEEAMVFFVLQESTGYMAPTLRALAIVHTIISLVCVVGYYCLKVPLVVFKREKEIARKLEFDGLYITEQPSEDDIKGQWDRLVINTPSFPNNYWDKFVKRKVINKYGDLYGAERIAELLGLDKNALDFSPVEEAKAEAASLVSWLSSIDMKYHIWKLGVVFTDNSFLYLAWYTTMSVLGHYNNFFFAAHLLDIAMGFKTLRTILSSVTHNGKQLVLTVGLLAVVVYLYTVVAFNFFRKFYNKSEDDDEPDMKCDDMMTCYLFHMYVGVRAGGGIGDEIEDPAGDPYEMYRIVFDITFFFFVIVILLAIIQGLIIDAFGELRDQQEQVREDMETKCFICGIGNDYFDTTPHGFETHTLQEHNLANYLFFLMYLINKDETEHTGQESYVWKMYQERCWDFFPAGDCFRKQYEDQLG

Structure (SMILES): CC1CCC2(O)C3(C)CC4(O)OC2(C1O)C1(O)C3(O)C(OC(=O)c2ccc[nH]2)C(O)(C(C)C)C41C (stereo unspecified)
- Relative activity: 69

Source: ChEMBL document CHEMBL1129336, “Ryanodine action at calcium release channels. 2. relation to substituents of the cyclohexane ring” (J Med Chem, 1996)
